Values quoted from earlier work, collected in PMC10610311, “Eugenol: In Vitro and In Ovo Assessment to Explore Cytotoxic Effects on Osteosarcoma and Oropharyngeal Cancer Cells” (Plants, 2023).

Tests used:
Detroit-562 cells = system: Detroit-562 cells; set-up: method as in PMID 25559287; conditions: Detroit-562, effectiveness not as great as afatinib; cited from earlier work
keratinocytes (HaCaT) = conditions: non-tumor cells HaCaT, methotrexate more pronounced; cited from earlier work

Question: Which results are given for “cetuximab: conventional antitumor therapy approved by the FDA”?
Answer: cell viability (in words) (Detroit-562 cells): decreased cell viability; cell viability (in words) (keratinocytes (HaCaT)): reduced cell viability in a dose-dependent manner
